PubChem BioAssay AID588436 (Broad Institute, 2011)
The entries are a selection whose mix differs from that of the whole data set. Some tests of the compounds listed are not included; inactive here does not mean inactive elsewhere. Active and inactive are the calls of the source. No stated cut-off is given here; in the data, active means activation mostly above about 9.7% (no sharp cut-off); inconclusive means no clear call, values can overlap the other calls; inactive means mostly below about 3.7%.

Test: inducers of Vibrio cholerae quorum light production without autoinducers, primary screen, BH1578 luxS cqsA deficient, single point (AID 588436)
Conditions: V. cholerae BH1578 lux reporter, luminescence, 6 h, at 18.7 µM; active compounds read high

| Structure (SMILES) | activation |
| --- | --- |
| O=C(NCC1(N2CCCCC2)CCCCC1)c1cc([N+](=O)[O-])ccc1Cl | inactive: -0.391% |
| CN1[C@@H]2CC[C@H]1CC(OC(=O)C(O)(c1ccccc1)c1ccccc1)C2 (stereo partly specified) | inactive: -0.488% |
| COc1cc(SC)ccc1C(=O)NCC1(N(C)C)CCCCC1 | inactive |
| CCN(CC)CC(C)C(C)OC(=O)C(O)(c1ccccc1)c1ccccc1 (stereo unspecified) | inactive: 0.027% |
| CC(C)N1C(=O)CC2(CCN(CCOC(=O)C(O)(c3ccccc3)c3ccccc3)CC2)C1=O | inactive |
| Cc1ccc(C(=O)NCC2(N3CCCCC3)CCCCC2)cc1 | inactive: -0.465% |
| CN(C)C1CCCC1OC(=O)C(O)(c1ccccc1)c1ccccc1 (stereo unspecified) | inactive: -0.178% |
| CN(C)c1ccc(C(=O)NCC2(N(C)C)CCCCC2)cc1 | inactive: 0.585% |
| Cc1ccccc1C(=O)NCC1(N2CCCCC2)CCCCC1 | inactive: -0.141% |
| O=C(NCC1(N2CCCCC2)CCCCC1)c1cc(F)c(F)cc1Cl | inactive: -0.0915% |
| C=CCN1CCN(CCOC(=O)C(O)(c2ccccc2)c2ccccc2)CC1 | inactive: -0.213% |
| COc1ccc(C(=O)NCC2(N(C)C)CCCCC2)cc1 | inactive: -0.018% |
| O=C(NCC1(N2CCCCC2)CCCCC1)c1cccc(Br)c1 | inactive: -0.326% |
| Cc1cc(C(=O)NCC2(N3CCCCC3)CCCCC2)ccc1[N+](=O)[O-] | inactive: -3.33% |
| CCN1CCCC(OC(=O)C2(O)c3ccccc3C=Cc3ccccc32)C1 (stereo unspecified) | inactive: 3.57% |
| CN(C)C1(CNC(=O)c2ccc(Br)cc2)CCCCC1 | inactive: -6.67% |
| COc1cc(C(=O)NCC2(N(C)C)CCCCC2)c([N+](=O)[O-])cc1OC | inactive: -5.56% |
| COc1ccc(Cl)cc1C(=O)NCC1(N(C)C)CCCCC1 | inactive: -0.618% |
| COc1cccc(C(=O)NCC2(N3CCCCC3)CCCCC2)c1 | inactive |
| O=C(NCC1(N2CCCCC2)CCCCC1)c1cccc(Cl)c1 | inactive: -0.336% |
| O=C(OC1CN2CCC1CC2)C(CO)(c1ccccc1)c1ccccc1 (stereo unspecified) | inactive |
| C=C(C)C#CC(O)(C(=O)OC1CCN(C)CC1)c1ccccc1 (stereo unspecified) | inactive |
| COc1ccc(Br)c(C(=O)NCC2(N3CCCCC3)CCCCC2)c1 | inactive: -0.205% |
| O=C(OCCN1CCCC1)C(O)(c1ccccc1)c1ccccc1 | inactive |
| CC(C)Oc1ccc(C(=O)NCC2(N(C)C)CCCCC2)cc1 | inactive: 0.603% |
| CN(C)c1cccc(C(=O)NCC2(N(C)C)CCCCC2)c1 | inactive: 0.397% |
